Experimental data taken from patent publication US20260240772A1 (priority 2022, published 2026).

Test system: mice with neuropathic pain
Conditions: tail intravenous injection 5 mg kg^−1 (FIG. 8) or subcutaneous injection 10 mg kg^−1 (FIG. 9); 0.4 g von Frey filament

For `CN1CC[C@]23c4c5ccc(O)c4O[C@H]2[C@@H](O)C=C[C@H]3[C@H]1C5` [morphine single drug, morphine], the “time of obvious analgesic effect after administration (reduced foot withdrawal frequency vs solvent group)” value was ≤ 2 h.
